Experimental data: patent publication US20220370406A1, “METHOD OF TREATING STIMULANT USE DISORDER USING A COMBINATION OF TOPIRAMATE AND PHENTERMINE” (University of Kentucky Research Foundation, priority 2019, published 2022)

Assays:
[1] = system: participants with cocaine use disorder; assay: Cocaine self-administration on progressive-ratio task during topiramate-phentermine maintenance; format: in vivo, human; conditions: cocaine 40 mg; topiramate (100 mg/day)+phentermine (0 mg/day) vs topiramate (0 mg/day)+phentermine (0 mg/day)
[2] = system: participants with cocaine use disorder; assay: Experimental sessions: cardiovascular measures after cocaine sampling dose during maintenance; conditions: cocaine 80 mg relative to cocaine 0 mg; maintenance topiramate (0 mg/day)+phentermine (0 mg/day)

SMILES: CC1(C)O[C@@H]2[C@@H](CO[C@@]3(COS(N)(=O)=O)OC(C)(C)O[C@@H]23)O1 [topiramate]
- number of cocaine choices [1]: significantly reduced

SMILES: COC(=O)[C@H]1[C@@H](OC(=O)c2ccccc2)C[C@@H]2CC[C@H]1N2C [Cocaine, cocaine]
- systolic and diastolic blood pressure [2]: significantly increased
